Measurements reported in BindingDB's records for doi:10.1016/S0893-133X(96)00187-X (University of Toronto, 1997).
pKi: −log10 of the molar value.

The chains behind the UniProt entries cited, without tags or fusion partners.
UniProt P14416, whole entry: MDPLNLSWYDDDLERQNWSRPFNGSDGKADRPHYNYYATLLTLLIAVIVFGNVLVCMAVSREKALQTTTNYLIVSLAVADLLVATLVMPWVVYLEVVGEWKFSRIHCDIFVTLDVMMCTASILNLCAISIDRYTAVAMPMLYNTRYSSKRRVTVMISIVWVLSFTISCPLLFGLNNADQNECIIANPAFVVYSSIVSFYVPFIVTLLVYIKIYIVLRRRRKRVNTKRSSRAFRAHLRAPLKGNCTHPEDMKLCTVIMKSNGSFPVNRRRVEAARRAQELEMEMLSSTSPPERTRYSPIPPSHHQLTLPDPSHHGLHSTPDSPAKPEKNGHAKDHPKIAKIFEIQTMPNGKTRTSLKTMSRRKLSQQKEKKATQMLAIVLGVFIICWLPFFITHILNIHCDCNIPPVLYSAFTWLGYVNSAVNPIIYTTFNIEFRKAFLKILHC

Target: D(2) dopamine receptor (Homo sapiens, UniProt P14416)

pKi: 9.19
SMILES: CCN1CCC[C@H]1CNC(=O)c1c(O)c(Cl)cc(Cl)c1OC [3,5-Dichloro-N-(1-ethyl-pyrrolidin-2-ylmethyl)-2-hydroxy-6-methoxy-benzamide (raclopride)]
